Measured values taken from BindingDB's records for PubMed 7965790 (University of Nebraska, 1994).

The chains behind the UniProt entries cited, without tags or fusion partners. Residues count along the entry.
UniProt P18871, 16-465: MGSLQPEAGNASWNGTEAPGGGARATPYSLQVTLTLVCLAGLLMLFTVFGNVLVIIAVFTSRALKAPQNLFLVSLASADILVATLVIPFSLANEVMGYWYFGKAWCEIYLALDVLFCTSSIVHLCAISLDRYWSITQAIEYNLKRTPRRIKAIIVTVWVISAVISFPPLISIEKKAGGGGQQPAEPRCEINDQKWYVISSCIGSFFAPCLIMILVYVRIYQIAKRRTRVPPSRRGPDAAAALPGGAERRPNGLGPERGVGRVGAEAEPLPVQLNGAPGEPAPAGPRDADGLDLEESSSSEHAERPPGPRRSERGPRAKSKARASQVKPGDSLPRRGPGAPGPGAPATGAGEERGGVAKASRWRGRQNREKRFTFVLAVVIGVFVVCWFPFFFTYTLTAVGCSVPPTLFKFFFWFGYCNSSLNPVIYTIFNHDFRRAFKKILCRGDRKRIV

Target: Alpha-2A adrenergic receptor (Sus scrofa, UniProt P18871)

## COC(=O)[C@@H]1[C@H]2C[C@H]3c4[nH]c5ccccc5c4CCN3C[C@@H]2CC[C@@H]1O [yohimbic acid methyl ester]
  Ki: 0.37 nM
